Assay results taken from ChEMBL document CHEMBL4613285, “Structural and in Vivo Characterization of Tubastatin A, a Widely Used Histone Deacetylase 6 Inhibitor” (ACS Med Chem Lett, 2020).
Active and inactive are the calls of the source. No cut-off for these calls is given here.

What was measured:
[1] = target: T1, Protein deacetylase HDAC6 (Mus musculus) (UniProt Q9Z2V5); conditions: C57BL/6, 10 mg/kg
T1 sequence (whole entry): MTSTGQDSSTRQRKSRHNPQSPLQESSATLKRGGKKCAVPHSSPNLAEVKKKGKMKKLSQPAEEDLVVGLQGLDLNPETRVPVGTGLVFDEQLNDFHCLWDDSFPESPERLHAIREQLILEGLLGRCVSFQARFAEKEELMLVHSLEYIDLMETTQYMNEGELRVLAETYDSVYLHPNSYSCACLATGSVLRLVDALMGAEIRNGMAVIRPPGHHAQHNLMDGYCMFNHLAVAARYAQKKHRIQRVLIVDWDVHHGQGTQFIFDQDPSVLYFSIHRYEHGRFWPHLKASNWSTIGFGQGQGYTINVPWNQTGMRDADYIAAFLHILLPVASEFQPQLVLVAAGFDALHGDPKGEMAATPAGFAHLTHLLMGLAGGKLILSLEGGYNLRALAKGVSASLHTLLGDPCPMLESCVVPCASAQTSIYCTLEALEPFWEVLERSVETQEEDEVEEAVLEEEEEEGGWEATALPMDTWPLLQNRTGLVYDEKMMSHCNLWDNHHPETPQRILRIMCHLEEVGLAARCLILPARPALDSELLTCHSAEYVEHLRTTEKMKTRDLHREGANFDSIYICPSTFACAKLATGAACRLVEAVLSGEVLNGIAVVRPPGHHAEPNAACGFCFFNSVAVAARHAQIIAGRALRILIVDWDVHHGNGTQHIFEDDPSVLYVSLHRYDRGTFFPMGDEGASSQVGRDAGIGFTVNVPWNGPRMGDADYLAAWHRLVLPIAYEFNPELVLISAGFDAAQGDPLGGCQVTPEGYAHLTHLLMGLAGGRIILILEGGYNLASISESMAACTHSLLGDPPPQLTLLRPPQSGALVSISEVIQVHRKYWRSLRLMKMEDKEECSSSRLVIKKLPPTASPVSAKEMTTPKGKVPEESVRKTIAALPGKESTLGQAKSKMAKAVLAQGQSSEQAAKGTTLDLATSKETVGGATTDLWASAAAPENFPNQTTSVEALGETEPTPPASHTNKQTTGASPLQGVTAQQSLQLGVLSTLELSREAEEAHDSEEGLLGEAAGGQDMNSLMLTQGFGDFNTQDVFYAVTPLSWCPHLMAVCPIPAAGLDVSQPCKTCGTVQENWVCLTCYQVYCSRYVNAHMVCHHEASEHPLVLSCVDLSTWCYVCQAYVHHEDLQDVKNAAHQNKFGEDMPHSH

[2] = target: T1, Protein deacetylase HDAC6 (Mus musculus); assay: In vivo inhibition of HDAC6 in C57BL/6 mouse cortex assessed as increase in alpha tubulin acetylation at 20 mg/kg, ip administered bid with interval of 4 hrs and measured after 1.5 hrs of last dosage by Western blot analysis; type: functional, organism-based
In short: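 Adult male C57BL/6 mice got two IP injections of 20 mg/kg, 4 h apart, and were killed 1.5 h after the second. Cortical homogenates were Western blotted (n = 3–4 per group) for acetylated α-tubulin/total tubulin densitometric ratio, normalized to vehicle-treated baseline (100%). Mean and standard deviation are reported; significance versus vehicle at p < 0.05 or p < 0.01.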

[3] = target: T1, Protein deacetylase HDAC6 (Mus musculus); conditions: C57BL/6, 10 mg/kg; remark: listed apart in the source

SMILES: CN1CCc2c(c3ccccc3n2Cc2ccc(C(=O)NO)cc2)C1 [TUBASTATIN A]
- inhibition [1]: inactive
- Activity [2]: Active
- inhibition [3]: Active
